Test [1] deals with Delta-type opioid receptor (Homo sapiens, UniProt P41143). The experiment in a line: Agonist activity at human delta-opioid receptor expressed in CHO cells after 90 mins by [35S]GTP-gamma-S assay.
Test [2] addresses Mu-type opioid receptor (Rattus norvegicus, UniProt P33535). Description: Agonist activity at rat mu-opioid receptor expressed in CHO cells after 90 mins by [35S]GTP-gamma-S assay. A general note: Binding of GTPγS marks nucleotide exchange on a G protein.

The chains behind the UniProt entries cited, without tags or fusion partners.
UniProt P41143, whole entry: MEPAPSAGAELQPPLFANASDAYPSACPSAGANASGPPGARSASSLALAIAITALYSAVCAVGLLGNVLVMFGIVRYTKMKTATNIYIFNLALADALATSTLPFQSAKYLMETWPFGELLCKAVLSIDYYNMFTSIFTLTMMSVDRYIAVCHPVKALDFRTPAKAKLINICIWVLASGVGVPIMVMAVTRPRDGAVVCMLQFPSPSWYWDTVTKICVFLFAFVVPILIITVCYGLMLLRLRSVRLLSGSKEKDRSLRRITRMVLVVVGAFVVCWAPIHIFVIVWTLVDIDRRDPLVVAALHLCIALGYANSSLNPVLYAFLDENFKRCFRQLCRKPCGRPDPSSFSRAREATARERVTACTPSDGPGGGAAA
UniProt P33535, whole entry: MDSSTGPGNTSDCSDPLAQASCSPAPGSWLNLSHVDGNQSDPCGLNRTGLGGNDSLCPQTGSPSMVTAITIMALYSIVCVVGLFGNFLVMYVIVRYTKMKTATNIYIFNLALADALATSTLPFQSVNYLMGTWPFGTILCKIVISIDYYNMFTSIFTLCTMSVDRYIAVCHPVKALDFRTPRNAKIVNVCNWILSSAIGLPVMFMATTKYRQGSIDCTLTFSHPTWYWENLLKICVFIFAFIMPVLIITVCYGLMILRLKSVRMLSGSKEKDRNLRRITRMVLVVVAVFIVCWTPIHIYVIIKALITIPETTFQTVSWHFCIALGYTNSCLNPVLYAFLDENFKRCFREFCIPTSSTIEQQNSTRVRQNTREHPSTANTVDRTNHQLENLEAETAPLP

This is a selection: effects in other tests are not listed, and their absence says nothing.

The term EC50 denotes the concentration at which the effect is half-maximal. Low readings indicate higher potency in that assay, high ones lower potency in that assay. Consider `C[C@@H](NC(=O)[C@@H](N)Cc1ccc(O)cc1)C(=O)NCC(=O)N[C@@H](Cc1ccccc1)C(=O)NC1CCN(CCc2ccccc2)CC1`, for which the EC50 in test [1] came to 510 nM; in test [2] it was 125 nM.

Source of the values: ChEMBL document CHEMBL1137610, “Development of novel enkephalin analogues that have enhanced opioid activities at both mu and delta opioid receptors” (2007).
